The values that follow come from patent EP1038864A1, “NOVEL METALLOPROTEINASE INHIBITORS” (FUJI YAKUHIN KOGYO KABUSHIKI KAISHA, priority 1997, dated 1999).

The chains behind the UniProt entries cited, without tags or fusion partners. Residues count along the entry.
UniProt P78536, 215-824: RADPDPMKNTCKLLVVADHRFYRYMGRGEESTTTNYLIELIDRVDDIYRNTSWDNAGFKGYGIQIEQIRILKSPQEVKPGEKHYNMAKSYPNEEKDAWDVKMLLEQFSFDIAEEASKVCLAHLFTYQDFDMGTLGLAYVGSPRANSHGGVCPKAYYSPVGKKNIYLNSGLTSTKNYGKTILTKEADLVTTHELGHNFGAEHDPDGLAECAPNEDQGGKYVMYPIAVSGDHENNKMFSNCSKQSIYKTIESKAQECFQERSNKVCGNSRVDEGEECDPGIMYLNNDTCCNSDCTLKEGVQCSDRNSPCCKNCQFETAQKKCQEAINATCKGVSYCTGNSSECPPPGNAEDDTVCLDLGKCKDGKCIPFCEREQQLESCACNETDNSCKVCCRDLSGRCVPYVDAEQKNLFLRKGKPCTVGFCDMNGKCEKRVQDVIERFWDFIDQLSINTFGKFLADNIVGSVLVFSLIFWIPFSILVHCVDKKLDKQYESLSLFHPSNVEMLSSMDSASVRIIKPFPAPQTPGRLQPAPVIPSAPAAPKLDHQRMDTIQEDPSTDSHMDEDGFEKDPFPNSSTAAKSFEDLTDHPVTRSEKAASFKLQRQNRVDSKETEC

This assay deals with TNF-α Convertase (Homo sapiens, UniProt P78536). Kind of assay: Assay for inhibition of TNF-α production in LPS-stimulated, PMA-differentiated U937 cells.

For the compound `CNC(=O)[C@@H](NC(=O)[C@H](CC(C)C)[C@H](O)C(=O)NO)C(C)(C)C` [Reference Compound No. 2, reference compound], the concentration for half-maximal inhibition (IC50) is 3.3 µM.

By IC50 is commonly meant the midpoint of a concentration-inhibition curve. A high value points to a need for much substance.
